According to paper PMC12142581:
Where “and” joins values, the source holds several entries; their conditions need not be identical. Equal values may be shown once. Read-outs that look alike come from different tables or passages of the source.

Amino acid sequences for entries named in this document (tags omitted).
UniProt P08173, whole entry, looked up: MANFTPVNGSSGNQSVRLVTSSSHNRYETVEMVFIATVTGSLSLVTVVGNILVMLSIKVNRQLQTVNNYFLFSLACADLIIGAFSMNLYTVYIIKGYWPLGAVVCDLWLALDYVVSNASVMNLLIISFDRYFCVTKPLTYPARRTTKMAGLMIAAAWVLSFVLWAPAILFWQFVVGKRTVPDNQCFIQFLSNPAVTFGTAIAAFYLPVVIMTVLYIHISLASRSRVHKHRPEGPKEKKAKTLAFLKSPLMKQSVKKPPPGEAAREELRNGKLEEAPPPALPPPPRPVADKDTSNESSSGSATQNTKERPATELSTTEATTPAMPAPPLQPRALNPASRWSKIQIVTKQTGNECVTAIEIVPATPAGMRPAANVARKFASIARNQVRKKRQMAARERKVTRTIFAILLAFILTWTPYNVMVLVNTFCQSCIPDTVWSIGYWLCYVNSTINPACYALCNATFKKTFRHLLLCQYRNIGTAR
UniProt P08485, whole entry, looked up: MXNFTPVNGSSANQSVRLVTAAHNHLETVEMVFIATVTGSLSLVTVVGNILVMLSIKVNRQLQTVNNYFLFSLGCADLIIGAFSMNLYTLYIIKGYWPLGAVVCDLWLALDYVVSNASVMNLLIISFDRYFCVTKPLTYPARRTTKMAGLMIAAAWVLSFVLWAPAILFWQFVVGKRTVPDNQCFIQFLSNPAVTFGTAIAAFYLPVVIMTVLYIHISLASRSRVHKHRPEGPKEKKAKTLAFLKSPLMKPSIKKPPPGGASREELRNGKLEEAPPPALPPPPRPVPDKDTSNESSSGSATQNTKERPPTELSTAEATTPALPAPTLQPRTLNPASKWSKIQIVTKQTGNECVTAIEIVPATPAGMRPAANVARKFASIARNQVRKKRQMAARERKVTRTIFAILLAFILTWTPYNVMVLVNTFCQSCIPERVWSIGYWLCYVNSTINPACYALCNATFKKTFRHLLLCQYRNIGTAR

Tests used:
[1] = Intrinsic clearance in liver microsomes (substrate depletion); details: for CLint, human / CLint, rat: microsomes; for CLhep, human / CLhep, rat: predicted from microsomal CLint
[2] = target: human M4 (hM4) (Homo sapiens, UniProt P08173); assay: Calcium mobilization assay, hM4/Gqi5-CHO cells, EC20 acetylcholine; details: for %AChMax: normalized to 100 μM acetylcholine; for EC50: read-out: hM4 EC50; for fold loss of hM4 potency: vs 15p
[3] = Binding in brain homogenate, equilibrium dialysis; details: fraction unbound
[4] = Binding in plasma, equilibrium dialysis; details: fraction unbound
[5] = Rat IV plasma:brain level (PBL) cassette; details: SD rat, 0.2 mg/kg IV, 0.25 h
[6] = dog; previously reported; cited from earlier work
[7] = target: T1, rat M4 (Rattus norvegicus, UniProt P08485); details: read-out: rM4 PAM EC50; previously reported; cited from earlier work
[8] = system: conditioned avoidance response; assay: Conditioned avoidance response (CAR); details: compound alone
[9] = Multi-species hepatocyte MetID; details: 10 µM parent, 4 h
[10] = target: T1, rat M4; assay: Calcium mobilization assay, CHO cells, EC20 acetylcholine
[11] = previously reported; cited from earlier work
[12] = previously reported; cited from earlier work; remark: listed apart in the source
[13] = TID; previously reported; cited from earlier work
[14] = system: amphetamine-induced hyperlocomotion; details: rat; previously reported; cited from earlier work

| SMILES | CLint, human [1] [mL/min/kg] | CLint, rat [1] [mL/min/kg] | CLhep, human [1] | CLhep, rat [1] | hM4 pEC50 [2] | %AChMax [2] [% AChMax] | human fu,plasma [4] | Kp,brain:plasma [5] | Kp,uu,brain:plasma [5] | EC50 ([2]; PAM, EC20 ACh) | further results |
| --- | --- | --- | --- | --- | --- | --- | --- | --- | --- | --- | --- |
| Cc1nnc2sc3c(NCc4ccc(C(C)(C)O)cc4)nccc3c2c1C | 40 | 224 | 14 mL/min/kg | 53 mL/min/kg | 7.66 | 98 | 0.008 | 0.4 | 0.73 | – | rat fu,brain [3]: 0.022; rat fu,plasma [4]: 0.012 |
| Cc1nnc2sc3c(N4CCCC4)ncnc3c2c1C | 423 | 471 | > 15 mL/min/kg and 20 mL/min/kg | > 56 mL/min/kg and 61 mL/min/kg | – | 68 | 0.06 | 3.19 | 1.94 | – | – |
| Cc1nc(C)c2c(n1)sc1c(NCc3ccc(C(C)(C)O)cc3)nccc12 | – | – | – | – | – | – | – | – | – | – | % F [6]: 25%; CLp [6]: 24 mL/min/kg; EC50 [7]: 42 nM |
| Cc1nc2n(c(=O)c1CCN1CCC(c3noc4cc(F)ccc34)CC1)CCCC2 | – | – | – | – | – | – | – | – | – | – | effect on avoidance and escape responses [8]: disrupted avoidance responses while maintaining their escape response |
| Cc1nnc2sc3c(NCc4ccc(C(=O)NC5CC(F)C5)cc4)ncnc3c2c1C (stereo not drawn) | 42 | 66 | 14 mL/min/kg | 34 mL/min/kg | 7.58 | 96 | 0.009 | 0.02 | 0.04 | – | rat fu,brain [3]: 0.019; rat fu,plasma [4]: 0.008 |
| COc1ccc(CNc2nccc3c2sc2nnc(C)c(C)c23)cc1F | 156 | 699 | > 15 mL/min/kg and 19 mL/min/kg | > 56 mL/min/kg and 64 mL/min/kg | 7.53 | 89 | 0.006 | BLQ | BLQ | – | rat fu,brain [3]: 0.007; rat fu,plasma [4]: 0.006 |
| Cc1nnc2sc3c(C4CCCCC4)ncnc3c2c1C | 188 | 801 | > 15 mL/min/kg and 19 mL/min/kg | > 56 mL/min/kg and 64 mL/min/kg | 7.29 | 73 | 0.008 | 4.02 | 0.4 | < 75 nM and 51.6 nM | fold more potent (hM4) ([2]; vs 13f): 2.3 fold; rat fu,brain [3]: 0.004; rat fu,plasma [4]: 0.04 |
| Cc1c(CO)nnc2sc3c(NCc4ccc(C(C)(C)O)cc4)ncnc3c12 | – | – | – | – | – | 94 | – | – | – | – | % Total Peak Area (MS) ([9]; dog hepatocytes): 22%; % Total Peak Area (MS) ([9]; minipig hepatocytes): 14%; % Total Peak Area (MS) ([9]; rat hepatocytes): 9.57% and 9.6% |
| Cc1nnc2sc3c(NCc4ccc(C(C)(C)O)cc4)ncnc3c2c1CO | – | – | – | – | – | – | – | – | – | – | % Total Peak Area (MS) ([9]; dog hepatocytes): 5.82% and 5.8%; % Total Peak Area (MS) ([9]; human hepatocytes): 1.36% and 1.4%; % Total Peak Area (MS) ([9]; minipig hepatocytes): 10.8%; % Total Peak Area (MS) ([9]; monkey hepatocytes): 6.77% and 6.8%; % Total Peak Area (MS) ([9]; rat hepatocytes): 14.3% |
| Cc1nnc2sc3c(NCc4ccc(C(C)(O)CO)cc4)ncnc3c2c1C (stereo not drawn) | – | – | – | – | – | – | – | – | – | 69 nM | % Total Peak Area (MS) ([9]; human hepatocytes): 7.89% and 7.9%; % Total Peak Area (MS) ([9]; minipig hepatocytes): 14%; % Total Peak Area (MS) ([9]; monkey hepatocytes): 3.22% and 3.2%; EC50 [10]: 32 nM |
| Cc1cc(C)c2c(n1)sc1c(N3CC4(COC4)C3)ncnc12 | – | – | – | – | – | – | – | – | – | – | rat CLhep [11]: 63 mL/min/kg; EC50 [7]: 299 nM; human CLhep [12]: 18 mL/min/kg |
| Cc1nnc2sc3c(NC4CN(c5ncc(F)cn5)C4)ncnc3c2c1C | 33 | 60 | 13 mL/min/kg | 32 mL/min/kg | 7.56 | 74 | 0.067 | 0.37 | 0.4 | – | rat fu,brain [3]: 0.031; rat fu,plasma [4]: 0.029 |
| COc1ccc(CNC(=O)c2sc3nnc(C)c(C)c3c2N)cc1F | – | – | – | – | – | – | – | – | – | – | EC50 [7]: 27 nM; Predicted human dose projection [13]: > 450 mg; MED, AHL [14]: 10 mg/kg |
| Cc1nc2oc3c(NC4CC4)ncnc3c2c(C)c1Cl | – | – | – | – | – | – | – | – | – | – | EC50 [7]: 589 nM |
| Cc1nnc2sc3c(C4CC4)ncnc3c2c1C | – | – | – | – | 6.63 | 79 | – | – | – | 235 nM | – |
| COC(C)(C)c1ccc(CNc2ncnc3c2sc2nnc(C)c(C)c23)cc1 | – | – | – | – | 6.50 | 100 | – | – | – | 315 nM | fold loss of hM4 potency [2]: 4 fold |
| COc1nnc2sc3c(NCc4ccc(C(C)(C)O)cc4)ncnc3c2c1C | – | – | – | – | 6.10 | 87 | – | – | – | 788 nM | fold loss of hM4 potency [2]: 11 fold |
| Cc1nnc2sc3c(N4CC5(COC5)C4)ncnc3c2c1C | – | – | – | – | 6.57 | 89 | – | – | – | 268 nM | – |
| Cc1nnc2sc3c(NCc4ccc(C(C)(C)O)cc4)nncc3c2c1C | – | – | – | – | 6.00 | 99 | – | – | – | 1000 nM | EC50 [2]: 1000 nM |
